The target of the test is isolated polymerase domain (I1780-V2590) of DNA polymerase theta (Polθ) (Homo sapiens (Human), UniProt O75417).

Sequences of proteins named here, by UniProt entry; tags and fusion partners are left off. Residues count along the entry.
UniProt O75417, 1780-2590: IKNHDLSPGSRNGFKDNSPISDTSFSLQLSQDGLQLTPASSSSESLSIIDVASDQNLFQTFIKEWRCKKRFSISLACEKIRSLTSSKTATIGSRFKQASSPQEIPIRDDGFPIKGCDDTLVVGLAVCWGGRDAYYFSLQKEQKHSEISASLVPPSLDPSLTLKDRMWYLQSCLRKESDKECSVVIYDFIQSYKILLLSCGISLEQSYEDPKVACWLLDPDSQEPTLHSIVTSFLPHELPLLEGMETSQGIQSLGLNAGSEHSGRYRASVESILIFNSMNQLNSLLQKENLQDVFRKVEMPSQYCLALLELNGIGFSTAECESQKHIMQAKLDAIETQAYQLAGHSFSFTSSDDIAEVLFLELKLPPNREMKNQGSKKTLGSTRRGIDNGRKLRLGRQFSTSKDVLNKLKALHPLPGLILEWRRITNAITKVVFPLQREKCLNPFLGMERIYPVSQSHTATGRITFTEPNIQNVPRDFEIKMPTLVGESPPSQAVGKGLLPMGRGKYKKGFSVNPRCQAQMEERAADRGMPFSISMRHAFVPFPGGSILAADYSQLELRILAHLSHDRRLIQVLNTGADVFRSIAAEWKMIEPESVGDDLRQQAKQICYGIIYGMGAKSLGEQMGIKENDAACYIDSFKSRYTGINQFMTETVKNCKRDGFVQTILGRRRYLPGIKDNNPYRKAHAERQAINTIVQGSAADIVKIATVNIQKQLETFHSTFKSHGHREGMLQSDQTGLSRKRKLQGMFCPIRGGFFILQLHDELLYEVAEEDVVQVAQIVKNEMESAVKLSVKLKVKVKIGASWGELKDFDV

Structures are written as SMILES.

Turning to `CCc1ccnc(Cn2c(-c3ccc(OCCN4CCNCC4)cc3Cl)nc3c(OC4(C)CC4)ncnc32)c1` [Example S4, 8-(2-chloro-4-(2-(piperazin-1-yl)ethoxy)phenyl)-9-((4-ethylpyridin-2-yl)methyl)-6-(1-methylcyclopropoxy)-9H-purine], inhibition was half-maximal at 2 nM (IC50).
Regarding `Cc1ccnc(Cn2c(-c3ccc(O[C@H]4C[C@@H](O)C4)cc3Cl)nc3c(OC4(C)CC4)ncnc32)c1` [Example T198, (1s,3s)-3-(3-chloro-4-(6-(1-methylcyclopropoxy)-9-((4-methylpyridin-2-yl)methyl)-9H-purin-8-yl)phenoxy)cyclobutan-1-ol], the IC50 (commonly the concentration needed to halve the response being measured) was 6.31 nM.
To `Cc1ccnc(Cn2c(-c3ccc(O[C@H]4C[C@H](O)C4)cc3Cl)nc3c(OC4(C)CC4)ncnc32)c1` [Example T199, (1r,3r)-3-(3-chloro-4-(6-(1-methylcyclopropoxy)-9-((4-methylpyridin-2-yl)methyl)-9H-purin-8-yl)phenoxy)cyclobutan-1-ol] belongs 3.98 nM.
Consider `CC1(Oc2ncnc3c2nc(-c2ccc(O[C@H]4C[C@H](C(=O)O)C4)cc2Cl)n3Cc2cccc(Cl)c2)CC1` [Example T253, (1r,3r)-3-(3-chloro-4-(9-(3-chlorobenzyl)-6-(1-methylcyclopropoxy)-9H-purin-8-yl)phenoxy)cyclobutane-1-carboxylic acid], for which the IC50 was 3.16 nM.
To `CC1(Oc2ncnc3c2nc(-c2ccc(O[C@H]4C[C@@H](C(=O)O)C4)cc2Cl)n3Cc2cccc(Cl)c2)CC1` [Example T254, (1s,3s)-3-(3-chloro-4-(9-(3-chlorobenzyl)-6-(1-methylcyclopropoxy)-9H-purin-8-yl)phenoxy)cyclobutane-1-carboxylic acid] belongs 5.01 nM.
As for `CC1(Oc2ncnc3c2nc(-c2cccc(O[C@H]4C[C@H](C(=O)O)C4)c2Cl)n3Cc2cccc(Cl)c2)CC1` [Example T256, (1r,3r)-3-(2-chloro-3-(9-(3-chlorobenzyl)-6-(1-methylcyclopropoxy)-9H-purin-8-yl)phenoxy)cyclobutane-1-carboxylic acid], the figure is 3.16 nM.
To `CC1(Oc2ncnc3c2nc(-c2cccc(O[C@H]4C[C@@H](C(=O)O)C4)c2Cl)n3Cc2cccc(Cl)c2)CC1` [Example T257, (1s,3s)-3-(2-chloro-3-(9-(3-chlorobenzyl)-6-(1-methylcyclopropoxy)-9H-purin-8-yl)phenoxy)cyclobutane-1-carboxylic acid] belongs 3.16 nM; to `CC1(Oc2ncnc3c2nc(-c2ccc(OC[C@H]4C[C@@H](C(=O)O)C4)cc2Cl)n3Cc2cccc(Cl)c2)CC1` [Example T409, (1s,3s)-3-((3-chloro-4-(9-(3-chlorobenzyl)-6-(1-methylcyclopropoxy)-9H-purin-8-yl)phenoxy)methyl)cyclobutane-1-carboxylic acid], 6.31 nM.
Regarding `CC1(Oc2ncnc3c2nc(-c2ccc(OC[C@H]4C[C@H](C(=O)O)C4)cc2Cl)n3Cc2cccc(Cl)c2)CC1` [Example T410, (1r,3r)-3-((3-chloro-4-(9-(3-chlorobenzyl)-6-(1-methylcyclopropoxy)-9H-purin-8-yl)phenoxy)methyl)cyclobutane-1-carboxylic acid], half-maximal inhibition (IC50) required 7.94 nM.
As for `Cc1ccnc(Cn2c(-c3ccc(OCc4nnc5n4CCNC5)cc3Cl)nc3c(OC4(C)CC4)ncnc32)c1` [Example T433], the figure is 3.98 nM; as for `Cc1ccnc(Cn2c(-c3ccc(C(=O)N(C)[C@H]4C[C@@H](O)C4)cc3Cl)nc3c(OC4(C)CC4)ncnc32)c1` [Example T468, 3-chloro-N-((1s,3s)-3-hydroxycyclobutyl)-N-methyl-4-(6-(1-methylcyclopropoxy)-9-((4-methylpyridin-2-yl)methyl)-9H-purin-8-yl)benzamide], 50.1 nM; as for `CC1(Oc2ncnc3c2nc(-c2ccc(O[C@H]4CC[C@H](C(=O)O)CC4)cc2Cl)n3Cc2cccc(Cl)c2)CC1` [Example T540, (1r,4r)-4-(3-chloro-4-(9-(3-chlorobenzyl)-6-(1-methylcyclopropoxy)-9H-purin-8-yl)phenoxy)cyclohexane-1-carboxylic acid], 3.98 nM.
As for `CC1(Oc2ncnc3c2nc(-c2ccc(O[C@H]4CC[C@@H](C(=O)O)CC4)cc2Cl)n3Cc2cccc(Cl)c2)CC1` [Example T541, (1s,4s)-4-(3-chloro-4-(9-(3-chlorobenzyl)-6-(1-methylcyclopropoxy)-9H-purin-8-yl)phenoxy)cyclohexane-1-carboxylic acid], the figure is 6.31 nM.
To `CC1(Oc2ncnc3c2nc(-c2cccc(O[C@H]4CC[C@H](C(=O)O)CC4)c2Cl)n3Cc2cccc(Cl)c2)CC1` [Example T542, (1r,4r)-4-(2-chloro-3-(9-(3-chlorobenzyl)-6-(1-methylcyclopropoxy)-9H-purin-8-yl)phenoxy)cyclohexane-1-carboxylic acid] belongs 3.16 nM; to `CC1(Oc2ncnc3c2nc(-c2cccc(O[C@H]4CC[C@@H](C(=O)O)CC4)c2Cl)n3Cc2cccc(Cl)c2)CC1` [Example T543, (1s,4s)-4-(2-chloro-3-(9-(3-chlorobenzyl)-6-(1-methylcyclopropoxy)-9H-purin-8-yl)phenoxy)cyclohexane-1-carboxylic acid], 3.98 nM.
Consider `Cc1ccnc(Cn2c(-c3ccc(OCC(=O)N4C[C@@H]5C[C@H]4CO5)cc3Cl)nc3c(OC4(C)CC4)ncnc32)c1` [Example T549], for which 10 nM corresponded to half-maximal inhibition (IC50).
`Cc1ccnc(Cn2c(-c3ccc(OCCN4CCn5cnnc5C4)cc3Cl)nc3c(OC4(C)CC4)ncnc32)c1` [Example T560] showed an IC50 of 3.16 nM.
As for `Cc1ccnc(Cn2c(-c3ccc(OCC(=O)N(C)[C@H]4C[C@@H](O)C4)cc3Cl)nc3c(OC4(C)CC4)ncnc32)c1` [Example T582, 2-(3-chloro-4-(6-(1-methylcyclopropoxy)-9-((4-methylpyridin-2-yl)methyl)-9H-purin-8-yl)phenoxy)-N-((1s,3s)-3-hydroxycyclobutyl)-N-methylacetamide], the figure is 10 nM; as for `CC1(Oc2ncnc3c2nc(-c2ccc(O[C@H]4CC[C@@H](C(=O)O)CC4)cc2Cl)n3Cc2ccccc2C#N)CC1` [Example U16, (1s,4s)-4-(3-chloro-4-(9-(2-cyanobenzyl)-6-(1-methylcyclopropoxy)-9H-purin-8-yl)phenoxy)cyclohexane-1-carboxylic acid], 6.31 nM; as for `CC1(Oc2ncnc3c2nc(-c2ccc(O[C@H]4CC[C@H](C(=O)O)CC4)cc2Cl)n3Cc2ccccc2C#N)CC1` [Example U19, (1r,4r)-4-(3-chloro-4-(9-(2-cyanobenzyl)-6-(1-methylcyclopropoxy)-9H-purin-8-yl)phenoxy)cyclohexane-1-carboxylic acid], 5.01 nM.
In turn, `CC1(Oc2ncnc3c2nc(-c2ccc(OC[C@H]4C[C@H](C(=O)O)C4)cc2Cl)n3Cc2ccccc2C#N)CC1` [Example U27, (1r,3r)-3-((3-chloro-4-(9-(2-cyanobenzyl)-6-(1-methylcyclopropoxy)-9H-purin-8-yl)phenoxy)methyl)cyclobutane-1-carboxylic acid] showed an IC50 of 12.6 nM.
`COc1ccc(Cl)cc1Cn1c(-c2cccc(O[C@H]3CC[C@H](C(=O)O)CC3)c2Cl)nc2c(OC3(C)CC3)ncnc21` [Example U38, (1r,4r)-4-(2-chloro-3-(9-(5-chloro-2-methoxybenzyl)-6-(1-methylcyclopropoxy)-9H-purin-8-yl)phenoxy)cyclohexane-1-carboxylic acid] had an IC50 of 5.01 nM.
To `COc1ccc(Cl)cc1Cn1c(-c2ccc(O[C@H]3CC[C@@H](C(=O)O)CC3)cc2Cl)nc2c(OC3(C)CC3)ncnc21` [Example U40, (1s,4s)-4-(3-chloro-4-(9-(5-chloro-2-methoxybenzyl)-6-(1-methylcyclopropoxy)-9H-purin-8-yl)phenoxy)cyclohexane-1-carboxylic acid] belongs 10 nM.
To `COc1ccc(Cl)cc1Cn1c(-c2ccc(O[C@H]3CC[C@H](C(=O)O)CC3)cc2Cl)nc2c(OC3(C)CC3)ncnc21` [Example U43, (1r,4r)-4-(3-chloro-4-(9-(5-chloro-2-methoxybenzyl)-6-(1-methylcyclopropoxy)-9H-purin-8-yl)phenoxy)cyclohexane-1-carboxylic acid] belongs 7.94 nM.
To `CC1(Oc2ncnc3c2nc(-c2ccc(O[C@H]4CC[C@@H](C(=O)O)CC4)cc2Cl)n3Cc2cc(Cl)ccc2F)CC1` [Example U44, (1s,4s)-4-(3-chloro-4-(9-(5-chloro-2-fluorobenzyl)-6-(1-methylcyclopropoxy)-9H-purin-8-yl)phenoxy)cyclohexane-1-carboxylic acid] belongs 5.01 nM; to `CC1(Oc2ncnc3c2nc(-c2ccc(O[C@H]4CC[C@H](C(=O)O)CC4)cc2Cl)n3Cc2cc(Cl)ccc2F)CC1` [Example U49, (1r,4r)-4-(3-chloro-4-(9-(5-chloro-2-fluorobenzyl)-6-(1-methylcyclopropoxy)-9H-purin-8-yl)phenoxy)cyclohexane-1-carboxylic acid], 10 nM; to `COc1ccc(Cl)cc1Cn1c(-c2cccc(O[C@H]3CC[C@@H](C(=O)O)CC3)c2Cl)nc2c(OC3(C)CC3)ncnc21` [Example U50, (1s,4s)-4-(2-chloro-3-(9-(5-chloro-2-methoxybenzyl)-6-(1-methylcyclopropoxy)-9H-purin-8-yl)phenoxy)cyclohexane-1-carboxylic acid], 7.94 nM.
The compound `COc1ccc(Cl)cc1Cn1c(-c2cccc(O[C@H]3C[C@H](C(=O)O)C3)c2Cl)nc2c(OC3(C)CC3)ncnc21` [Example U51, (1r,3r)-3-(2-chloro-3-(9-(5-chloro-2-methoxybenzyl)-6-(1-methylcyclopropoxy)-9H-purin-8-yl)phenoxy)cyclobutane-1-carboxylic acid] gave an IC50 of 6.31 nM.
As for `COc1ccc(F)cc1Cn1c(-c2cccc(O[C@H]3CC[C@H](C(=O)O)CC3)c2Cl)nc2c(OC3(C)CC3)ncnc21` [Example U69, (1r,4r)-4-(2-chloro-3-(9-(5-fluoro-2-methoxybenzyl)-6-(1-methylcyclopropoxy)-9H-purin-8-yl)phenoxy)cyclohexane-1-carboxylic acid], the figure is 3.16 nM; as for `COc1ccc(F)cc1Cn1c(-c2cccc(O[C@H]3C[C@@H](C(=O)O)C3)c2Cl)nc2c(OC3(C)CC3)ncnc21` [Example U74, (1s,3s)-3-(2-chloro-3-(9-(5-fluoro-2-methoxybenzyl)-6-(1-methylcyclopropoxy)-9H-purin-8-yl)phenoxy)cyclobutane-1-carboxylic acid], 3.98 nM.
